We go through one compound from US10065948B2, “Histone deacetylase inhibitors and compositions and methods of use thereof” (CHDI Foundation, Inc., priority 2014, dated 2018).

The chains behind the UniProt entries cited, without tags or fusion partners. Residues count along the entry.
UniProt P56524, 648-1032: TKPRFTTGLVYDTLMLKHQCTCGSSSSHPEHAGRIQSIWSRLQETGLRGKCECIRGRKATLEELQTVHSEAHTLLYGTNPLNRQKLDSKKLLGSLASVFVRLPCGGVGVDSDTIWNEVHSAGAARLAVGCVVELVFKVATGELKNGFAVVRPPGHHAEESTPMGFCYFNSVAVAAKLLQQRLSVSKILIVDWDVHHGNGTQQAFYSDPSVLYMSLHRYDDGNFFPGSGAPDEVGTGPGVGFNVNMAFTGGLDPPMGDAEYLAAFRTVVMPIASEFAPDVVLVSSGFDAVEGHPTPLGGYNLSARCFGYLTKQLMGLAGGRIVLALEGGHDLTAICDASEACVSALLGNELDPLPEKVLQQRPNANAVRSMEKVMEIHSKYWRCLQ

Experiment [1] has as its system cellular histone deacetylase enzymatic activity in Jurkat E6-1 cells. The experiment in a line: Inhibition of cellular HDAC activity, Boc-Lys(Tfa)-AMC substrate (Cell Lys-TFA). Format: cell-based. The procedure: The potency of the compounds is quantified by measuring the cellular histone deacetylase enzymatic activity using the fluorogenic substrate, Boc-Lys(Tfa)-AMC. After penetration in Jurkat E6-1 cells, the substrate is deacetylated to Boc-Lys-AMC. After cell lysis and cleavage by trypsin, the fluorophore AMC is released from the deacetylated substrate only. The fluorescence of the sample is directly related to the histone deacetylase activity in the sample.
Jurkat E6.1 cells are cultured according to standard cell culture protocols in Jurkat E6.1 Growth Media (RPMI without phenol red, 10% FBS, 10 mM HEPES, and 1 mM Sodium Pyruvate). Jurkat E6.1 cells are counted using a Coulter Counter and resuspended in Jurkat E6.1 growth media at a concentration of 75,000 cells/35 μL. 35 μL or 75,000 cells is seeded into Greiner microtitre assay plates. The plates are then incubated at 37° C. and 5% CO2 while other assay components are being prepared. […]
5 μL of each solution of 1:20 diluted compound from above is transferred to the Greiner microtitre assay plates with 75,000 cells/well using the Bravo. […] Finally the top read fluorescence (Excitation: 355 nm, Emission: 460 nm) is measured using PerkinElmer EnVision.

The target of experiment [2] is Histone Deacetylase 4 (HDAC4) catalytic domain (Homo sapiens (Human), UniProt P56524). The experiment in a line: Biochemical HDAC inhibition assay, fluorogenic substrate Boc-Lys(Tfa)-AMC. As for the experimental part: The potency of compounds is quantified by measuring the Histone Deacetylase 4 (HDAC4) catalytic domain enzymatic activity using the fluorogenic substrate, Boc-Lys(Tfa)-AMC. The substrate is deacetylated to Boc-Lys-AMC by HDAC4. Cleavage by trypsin results in the release of the fluorophore AMC from the deacetylated substrate. The fluorescence of the sample is directly related to the histone deacetylase activity in the sample.
Stocks of 60 μL aliquots of the 10 mM compound in DMSO are prepared and stored at −20° C. From one stock aliquot of each compound to be tested and the reference compound, a 16-point serial dilution is prepared according to Table 1 using a 125 μL 16-channel Matrix multi-channel pipette (Matrix Technologies Ltd).
2 μL (200×) of each diluted solution and each control (full activity: 100% DMSO alone or full inhibition 1 mM) is stamped into V-bottomed polypropylene 384-well compound plates using either the Bravo (384-well head from Agilent) or 12.5 μL 16-channel Matrix multi-channel pipette (Matrix Technologies Ltd). Each well with the 200× compound solution is diluted 1:20 by the addition of 38 μL assay buffer+DMSO (10.5% DMSO, 45 mM Tris-HCl, 123 mM NaCl, 2.4 mM KCl, and 0.9 mM MgCl2 at pH 8.0 and equilibrated to room temperature).
The HDAC4 catalytic domain enzyme is human catalytic domain HDAC4 protein (amino acids 648-1032) with a C-terminal 6× histidine tag, produced by BioFocus. A working solution of enzyme is prepared from a 500 μg/mL stock aliquot of HDAC4 catalytic domain (thawed on ice) diluted to 0.2 μg/mL with assay buffer (50 mM Tris-HCl, 137 mM NaCl, 2.7 mM KCl, and 1 mM MgCl2 at pH 8 and equilibrated to room temperature) just prior to the addition of the enzyme to the assay.
5× (50 μM) substrate is prepared just prior to the addition to the assay. A 1 mM substrate stock is made by diluting a 100 mM Boc-Lys(Tfa)-AMC in DMSO solution 1:100 by adding it drop-wise to assay buffer (equilibrated to room temperature) while vortexing at slow speed to prevent precipitation. The 5× substrate is prepared by diluting the 1 mM substrate solution 1:20 by adding it drop-wise to assay buffer (equilibrated to room temperature) while vortexing at slow speed to prevent precipitation.
3× (30 μM) Developer/Stop Solution is prepared just prior to addition to the plate by diluting a stock solution of 10 mM reference compound 1:333 in 25 mg/mL trypsin (PAA Laboratories Ltd.) equilibrated to room temperature.
5 μL of each solution of 1:20 diluted compound from above is transferred to a clear bottomed, black, 384-well assay plate using the Bravo or the Janus (384-well MDT head from Perkin Elmer). Using a 16-channel Matrix multi-channel pipette, 35 μL of the working solution of HDAC4 catalytic domain enzyme (0.2 μg/mL in assay buffer) is transferred to the assay plate. […] The assay plate is then shaken for two minutes on an orbital shaker at 900 rpm (rotations per minute). Next the plate is incubated for 15 minutes at 37° C. The reaction is stopped by adding 25 μL of 3× (30 μM) developer/stop solution to the assay plates using either the Bravo, Janus or a 16-channel Matrix multi-channel pipette. Assay plates are then shaken for 5 minutes on an orbital shaker at 1200 rpm. Next, the assay plates are incubated at 37° C. for 1 hour in a tissue culture incubator. Finally, the fluorescence is measured (Excitation: 355 nm, Emission: 460 nm) using PerkinElmer EnVision in top read mode.

Turning to `Cc1c(F)cccc1C1(C(=O)NO)Cc2nc(-c3cccc(F)c3)sc2C1` (single isomer, unassigned) [Example 65, E2-(abs)-5-(3-fluoro-2-methylphenyl)-2-(3-fluorophenyl)-N-hydroxy-5,6-dihydro-4H-cyclopenta[d]thiazole-5-carboxamide], the results for the IC50 in experiment [1] and in experiment [2] were 220 nM and 530 nM, respectively.

One may read the IC50 as the concentration at which inhibition is half-maximal. High values mean lower potency, low ones higher potency.
